# CycPeptMPDB entries from one study

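Lipid, pH, incubation time, direction and concentration are not recorded in the data file. Other peptides of the study may be missing here. Entries at the database's floor value (log10 P of -10) are not listed.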

PAMPA measures passive passage through an artificial lipid membrane.
Values are log10 P with P in cm/s, so -5 is more permeable than -7.

| SMILES | PAMPA (log10 cm/s) |
|---|---|
| CC(=O)N1CCC[C@@H]1C(=O)N(C)[C@@H](CC(C)C)C(=O)N[C@@H]1C(=O)N[C@@H](CC(C)C)C(=O)N[C@H](CC(C)C)C(=O)N[C@H](CC(C)C)C(=O)N[C@@H](C)C(=O)N[C@H](CC(C)C)C(=O)N2CCC[C@H]2C(=O)O[C@@H]1C | -6.73 |
| CC(=O)N1CCC[C@@H]1C(=O)N(C)[C@H](CC(C)C)C(=O)N[C@@H]1C(=O)N[C@@H](CC(C)C)C(=O)N[C@H](CC(C)C)C(=O)N[C@@H](CC(C)C)C(=O)N[C@@H](C)C(=O)N[C@H](CC(C)C)C(=O)N2CCC[C@H]2C(=O)O[C@@H]1C | -6.96 |
| CC(=O)N1CCC[C@H]1C(=O)N(C)[C@@H](CC(C)C)C(=O)N[C@@H]1C(=O)N(C)[C@H](CC(C)C)C(=O)N(C)[C@@H](CC(C)C)C(=O)N[C@@H](CC(C)C)C(=O)N[C@@H](C)C(=O)N[C@H](CC(C)C)C(=O)N2CCC[C@@H]2C(=O)O[C@@H]1C | -5.99 |
| CC(=O)N1CCC[C@H]1C(=O)N(C)[C@H](CC(C)C)C(=O)N[C@@H]1C(=O)N[C@@H](CC(C)C)C(=O)N[C@@H](CC(C)C)C(=O)N[C@H](CC(C)C)C(=O)N[C@@H](C)C(=O)N[C@H](CC(C)C)C(=O)N2CCC[C@@H]2C(=O)O[C@@H]1C | -6.59 |
| CC(=O)N1CCC[C@H]1C(=O)N(C)[C@H](CC(C)C)C(=O)N[C@@H]1C(=O)N(C)[C@H](CC(C)C)C(=O)N[C@@H](CC(C)C)C(=O)N[C@H](CC(C)C)C(=O)N(C)[C@H](C)C(=O)N[C@@H](CC(C)C)C(=O)N2CCC[C@H]2C(=O)O[C@@H]1C | -5.10 |
| CC(=O)N1CCC[C@H]1C(=O)N(C)[C@@H](CC(C)C)C(=O)N[C@@H]1C(=O)N[C@@H](CC(C)C)C(=O)N(C)[C@@H](CC(C)C)C(=O)N(C)[C@H](CC(C)C)C(=O)N(C)[C@@H](C)C(=O)N[C@H](CC(C)C)C(=O)N2CCC[C@H]2C(=O)O[C@@H]1C | -6.26 |
| CC(=O)N1CCC[C@@H]1C(=O)N(C)[C@@H](CC(C)C)C(=O)N[C@@H]1C(=O)N[C@H](CC(C)C)C(=O)N(C)[C@H](CC(C)C)C(=O)N[C@H](CC(C)C)C(=O)N(C)[C@@H](C)C(=O)N[C@@H](CC(C)C)C(=O)N2CCC[C@H]2C(=O)O[C@@H]1C | -5.71 |
| CC(=O)N1CCC[C@H]1C(=O)N[C@@H]1C(=O)N(C)[C@H](CC(C)C)C(=O)N[C@H](CC(C)C)C(=O)N[C@@H](CC(C)C)C(=O)N[C@@H](CC(C)C)C(=O)N[C@@H](C)C(=O)N[C@@H](CC(C)C)C(=O)N2CCC[C@@H]2C(=O)O[C@@H]1C | -6.57 |
| CC(=O)N1CCC[C@@H]1C(=O)N(C)[C@H](CC(C)C)C(=O)N[C@@H]1C(=O)N[C@@H](CC(C)C)C(=O)N(C)[C@@H](CC(C)C)C(=O)N(C)[C@H](CC(C)C)C(=O)N(C)[C@H](C)C(=O)N[C@@H](CC(C)C)C(=O)N2CCC[C@H]2C(=O)O[C@@H]1C | -6.13 |
| CC(=O)N1CCC[C@H]1C(=O)N(C)[C@H](CC(C)C)C(=O)N[C@@H]1C(=O)N(C)[C@@H](CC(C)C)C(=O)N[C@@H](CC(C)C)C(=O)N(C)[C@H](CC(C)C)C(=O)N(C)[C@@H](C)C(=O)N[C@H](CC(C)C)C(=O)N2CCC[C@@H]2C(=O)O[C@@H]1C | -5.13 |
| CC(=O)N1CCC[C@@H]1C(=O)N(C)[C@@H](CC(C)C)C(=O)N[C@@H]1C(=O)N[C@H](CC(C)C)C(=O)N(C)[C@H](CC(C)C)C(=O)N[C@H](CC(C)C)C(=O)N[C@@H](C)C(=O)N[C@H](CC(C)C)C(=O)N2CCC[C@H]2C(=O)O[C@@H]1C | -5.69 |
| CC(=O)N1CCC[C@H]1C(=O)N(C)[C@H](CC(C)C)C(=O)N[C@@H]1C(=O)N[C@H](CC(C)C)C(=O)N[C@@H](CC(C)C)C(=O)N(C)[C@@H](CC(C)C)C(=O)N[C@@H](C)C(=O)N[C@@H](CC(C)C)C(=O)N2CCC[C@H]2C(=O)O[C@@H]1C | -5.19 |
| CC(=O)N1CCC[C@H]1C(=O)N[C@@H]1C(=O)N[C@H](CC(C)C)C(=O)N[C@@H](CC(C)C)C(=O)N(C)[C@@H](CC(C)C)C(=O)N[C@@H](CC(C)C)C(=O)N(C)[C@@H](C)C(=O)N[C@@H](CC(C)C)C(=O)N2CCC[C@@H]2C(=O)O[C@@H]1C | -5.14 |
| CC(=O)N1CCC[C@@H]1C(=O)N(C)[C@@H](CC(C)C)C(=O)N[C@@H]1C(=O)N(C)[C@@H](CC(C)C)C(=O)N(C)[C@H](CC(C)C)C(=O)N(C)[C@H](CC(C)C)C(=O)N[C@@H](C)C(=O)N[C@H](CC(C)C)C(=O)N2CCC[C@@H]2C(=O)O[C@@H]1C | -5.67 |
| CC(=O)N1CCC[C@H]1C(=O)N(C)[C@H](CC(C)C)C(=O)N[C@@H]1C(=O)N[C@H](CC(C)C)C(=O)N[C@@H](CC(C)C)C(=O)N(C)[C@H](CC(C)C)C(=O)N(C)[C@H](C)C(=O)N[C@@H](CC(C)C)C(=O)N2CCC[C@H]2C(=O)O[C@@H]1C | -5.13 |

2 of these entries, quoted again:

{"smiles": "CC(=O)N1CCC[C@H]1C(=O)N(C)[C@H](CC(C)C)C(=O)N[C@@H]1C(=O)N[C@@H](CC(C)C)C(=O)N[C@@H](CC(C)C)C(=O)N[C@H](CC(C)C)C(=O)N[C@@H](C)C(=O)N[C@H](CC(C)C)C(=O)N2CCC[C@@H]2C(=O)O[C@@H]1C", "PAMPA (log10 cm/s)": "-6.59"}
{"smiles": "CC(=O)N1CCC[C@@H]1C(=O)N(C)[C@@H](CC(C)C)C(=O)N[C@@H]1C(=O)N(C)[C@@H](CC(C)C)C(=O)N(C)[C@H](CC(C)C)C(=O)N(C)[C@H](CC(C)C)C(=O)N[C@@H](C)C(=O)N[C@H](CC(C)C)C(=O)N2CCC[C@@H]2C(=O)O[C@@H]1C", "PAMPA (log10 cm/s)": "-5.67"}

Values of Kelly et al. 2021, doi:10.1021/jacs.0c06115, as listed in CycPeptMPDB.